Screening data: PubChem BioAssay, several laboratories
A selection: hits, their analogues and other compounds. The true share with any hit is near 4.2%.
MC4R barr agon: activates human MC4R beta-arrestin recruitment; P32245; U2OS MC4R beta-arrestin complementation, luminescence; percent of melanotan II response, DMSO zero; activation, % at 8.9 µM; 360,000 tested, 0.98% active;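 active = activation above a per-plate cutoff, the mean activation of sample wells on that plate plus 3 SD, cut at about 8% in these data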
HDAC3 inhib: human HDAC3 inhibition | O15379 | recombinant HDAC3, fluorogenic peptide/trypsin coupled, fluorescence | inhibition, % at 8.3 µM | 320,000 tested, 0.15% active | AID 2718; in the data active = inhibition above about 26%, passing the limit was not always enough; inconclusive = no clear call, values can overlap the other calls
ALR inh: inhibitors of human ALR sulfhydryl oxidase, primary screen, biochemical, H2O2 detection, HRP-luminol luminescence, single point | FAD-linked sulfhydryl oxidase ALR (Homo sapiens), P55789 | purified ALR, DTT oxidation | inhibition, % (concentration not given with the values) | actives 3.8% (n = 290,000) | AID 485317, 2010;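 active = mean and each replicate at 75% or more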;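 also: stock transfer was 7.5 nL into about 7.5 µL; 0% = neutral wells and 100% = wells with inactivated enzyme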
Yeast UUG start: yeast start codon fidelity modulation; activity score, % at 18.7 µM; actives 0.13% (n = 350,000); S. cerevisiae UUG-firefly luciferase reporter, luminescence/redox ratio; AID 602363;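 active means replicate mean at a twofold rise or more, about +100% in these data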;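 further: firefly luciferase made from a UUG start codon reports start codon fidelity; reporter light over untreated wells divided by growth signal over untreated wells; some hits fall short of that in this replicate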
NALP1 inh: NALP1 inhibition. S. cerevisiae NALP1/ASC/caspase-1 growth, X-gal OD620, 72 h. inhibition, % at 10 µM. 280,000 tested, 0.61% active. AID 2071; in the data active = inhibition mostly above about 24%, no sharp cut-off; inactive = mostly below about 32%
MC4R antag cAMP: blocks human MC4R cAMP signaling | AID 540295 | MC4R-expressing cells, MTII-stimulated cAMP, LANCE TR-FRET | inhibition, % at 6.5 µM | 360,000 tested, 0.48% active | P32245;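 active = inhibition above its plate's cutoff, the mean of tested wells on that plate plus 3 SD, cut at about 29% in these data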;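 also: 0% = Melanotan II alone and 100% = Melanotan II plus saturating MCL0020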
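Assay system: human MC4R-expressing U2OS cells; reagent: Melanotan II stimulation of cells; dosing: 6.5 µM single dose; timing: compound 30 min, challenge 1 h, detection 1 h; signal: TR-FRET cAMP assay; replicates: one well per compound, no replicates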
Active calls of the source: *; ? = inconclusive; · = no result.

1: CC(=O)OC1CC(OC2C(O)CC(OC3C(O)CC(OC4CCC5(C)C(CCC6C5CCC5(C)C(C7=CC(=O)OC7)C(O)CC65O)C4)OC3C)OC2C)OC(C)C1OC1OC(CO)C(O)C(O)C1O (stereo unspecified)
2: C[C@H]1O[C@@H](O[C@H]2[C@@H](O)C[C@H](O[C@H]3[C@@H](O)C[C@H](O[C@H]4CC[C@@]5(C)[C@H](CC[C@@H]6[C@@H]5CC[C@]5(C)[C@@H](C7=CC(=O)OC7)CC[C@]65O)C4)O[C@@H]3C)O[C@@H]2C)C[C@H](O)[C@@H]1O
3: O=C(Cc1ccncc1)N1CCCCN2[C@H](CO)[C@H](c3ccc(C#Cc4ccccc4F)cc3)[C@@H]2C1
4: NCC(O)c1cc(O)c(O)cc1F (stereo unspecified)
5: O=C(O)[C@@H]1[C@@H](CO)[C@@H]2Cn3c(ccc(-c4ccncc4)c3=O)[C@H]1N2C(=O)C1CCC1
6: COc1ccc(C#Cc2ccc([C@@H]3[C@@H](CO)N4CCCCN(C(=O)Cc5ccncc5)C[C@H]34)cc2)cc1
7: O=C(CSC1c2ccccc2-c2ccccc21)N/N=C/c1ccc(C(=O)O)cc1
8: O=C(CSC1c2ccccc2-c2ccccc21)N/N=C/c1ccccc1O

screen / no. | 1 | 2 | 3 | 4 | 5 | 6 | 7 | 8
MC4R barr agon | 15* | · | · | 1 | · | · | 0 | 5
HDAC3 inhib | · | · | · | -3 | · | · | -6 | 2
ALR inh | · | · | · | 83* | · | · | -5 | 98*
Yeast UUG start | · | · | 7 | -5 | -38 | -1 | · | -14
NALP1 inh | · | 12 | · | · | · | · | -11 | 0
MC4R antag cAMP | 11 | · | · | -18 | · | · | 22 | -9

9: O=C(Cc1cccnc1)N1CCCCN2[C@@H](CO)[C@H](c3ccc(/C=C/c4ccccc4)cc3)[C@@H]2C1
10: O=c1c2ccccc2nc(-c2ccco2)n1-c1nccs1
11: Cc1ccc(-c2nc3ccccc3c(=O)n2-c2nccs2)cc1
12: CC[C@@H]1C=CC=CC[C@H](C)[C@@H](O)[C@@H](C)C(=O)[C@H](C)[C@@H](O)[C@H](C)C(=O)[C@H](C)[C@@H](O)[C@H](C)C=CC(=O)O[C@H]2[C@@H](C)[C@@H](CC1)O[C@@]1(CC[C@@H](C)[C@@H](C[C@H](C)O)O1)[C@@H]2C
13: CCOC(=O)C1SC2(C(F)(F)F)CC1(O)c1c(C)cc(C)nc1O2 (stereo unspecified)
14: CN(C)C(=O)[C@H]1[C@H](CO)[C@H]2Cn3c(cccc3=O)[C@@H]1N2CC1CC1
15: CC1(C)OC(c2ccccc2)=C/C(=C/C=C2C(=O)NC(=S)NC2=O)O1
16: O=C(Cc1ccccn1)N1CCCCN2[C@H](CO)[C@H](c3ccc(-c4ccccc4F)cc3)[C@H]2C1

screen / no. | 9 | 10 | 11 | 12 | 13 | 14 | 15 | 16
MC4R barr agon | · | -2 | 9.2* | · | 1 | · | · | ·
HDAC3 inhib | · | -1 | -1 | 50* | 44* | · | 6 | ·
ALR inh | · | -2 | 20 | -11 | 57 | · | 88* | ·
Yeast UUG start | -17 | -15 | -22 | · | 1 | -14 | · | -17
NALP1 inh | · | 18 | 9 | · | 5 | · | 4 | ·
MC4R antag cAMP | · | 10 | -3 | · | -13 | · | · | ·

Rewritten bar-delimited: two of the compounds above
No. | Molecule | MC4R barr agon | HDAC3 inhib | ALR inh | Yeast UUG start | NALP1 inh | MC4R antag cAMP
9 | O=C(Cc1cccnc1)N1CCCCN2[C@@H](CO)[C@H](c3ccc(/C=C/c4ccccc4)cc3)[C@@H]2C1 | · | · | · | -17 | · | ·
10 | O=c1c2ccccc2nc(-c2ccco2)n1-c1nccs1 | -2 | -1 | -2 | -15 | 18 | 10

New compounds follow.
17: c1ccc2c(c1)[nH]c1cnccc12
18: Cc1c2ccncc2c(C)c2c1[nH]c1ccccc12
19: Cc1cccc(N=Cc2c(O)n(-c3ccccc3C)c(=O)[nH]c2=O)c1
20: Cc1ccccc1-n1c(O)c(C=Nc2ccc(N(C)C)cc2)c(=O)[nH]c1=O
21: CC1OC(OC2C=C3CCC4C(CCC5(C)C(c6ccc(=O)oc6)CCC45O)C3(C)CC2)C(O)C(OC2OC(CO)C(O)C(O)C2O)C1O (stereo unspecified)
22: CCCC#Cc1ccc([C@H]2[C@@H](CO)N3CCCCN(C(=O)Cc4ccccn4)C[C@H]23)cc1
23: O=C(NC1(C(F)(F)F)Oc2ccccc2O1)N1CCC2(CC1)OCCO2
24: O=C(NC1(C(F)(F)F)Oc2ccc(Cl)cc2O1)N1CCC2(CC1)OCCO2 (stereo unspecified)

screen / no. | 17 | 18 | 19 | 20 | 21 | 22 | 23 | 24
MC4R barr agon | 1 | 2 | -1 | 0 | 37* | · | -1 | 1
HDAC3 inhib | -34 | 2 | 5 | 13 | · | · | -7 | ?
ALR inh | · | 14 | -3 | 92* | · | · | -26 | 99*
Yeast UUG start | -1 | -4 | -11 | -18 | · | 13 | -9 | -18
NALP1 inh | 32 | 95* | -10 | 6 | · | · | 1 | 8
MC4R antag cAMP | -1 | 16 | -2 | -12 | 13 | · | 5 | 9

25: COC(=O)[C@@H]1[C@@H](CO)[C@@H]2Cn3c(cccc3=O)[C@H]1N2C(=O)C1CCC1
26: NC1=C([N+](=O)[O-])C(c2ccc3c(c2)OCO3)c2c(c3ccccc3oc2=O)O1 (stereo unspecified)
27: O=c1oc2ccccc2c(O)c1[C@H]1c2ccc(O)cc2Oc2c1c(=O)oc1ccccc21
28: CC(=O)NC(Cc1ccc(N(CCCl)CCCl)cc1)C(=O)O (stereo unspecified)
29: O=C(Cc1ccc(N(CCCl)CCCl)cc1)NC(Cc1ccc(Cl)cc1)C(=O)O (stereo unspecified)
30: COC(=O)[C@@H]1[C@@H](CO)[C@@H]2Cn3c(cccc3=O)[C@@H]2N1CC1CC1
31: O=C(O)Cn1cc(/C=C2\C(=O)NC(=O)N(Cc3ccco3)C2=O)c2ccccc21
32: Cc1cc(/C=C2/C(=O)NC(=O)N(Cc3ccco3)C2=O)c(C)n1-c1ccccc1O

screen / no. | 25 | 26 | 27 | 28 | 29 | 30 | 31 | 32
MC4R barr agon | · | · | -1 | 1 | 1 | · | -2 | 3
HDAC3 inhib | · | 2 | 5 | 2 | -7 | · | 10 | 8
ALR inh | · | 45 | 98* | 52 | 98* | · | 98* | 81*
Yeast UUG start | -5 | · | -17 | -25 | -19 | 3 | · | -5
NALP1 inh | · | · | · | -78 | 3 | · | -1 | -13
MC4R antag cAMP | · | · | 11 | 4 | 5 | · | 0 | 10

The last 2 records of the part above come first, to join the parts.
31: O=C(O)Cn1cc(/C=C2\C(=O)NC(=O)N(Cc3ccco3)C2=O)c2ccccc21
32: Cc1cc(/C=C2/C(=O)NC(=O)N(Cc3ccco3)C2=O)c(C)n1-c1ccccc1O
33: CCN1C(=O)NC(=O)/C(=C\c2cn(CC(=O)O)c3ccccc23)C1=O
34: C=CCN1C(=S)N[C@@H]2c3ccccc3O[C@@]1(C)[C@@H]2C(=O)OCC
35: O=C1NC(=O)C(=Cc2ccc(-c3ccccc3[N+](=O)[O-])o2)C(=O)N1
36: CNS(=O)(=O)c1ccc(-c2ccc(C=C3C(=O)NC(=O)NC3=O)o2)cc1
37: NS(=O)(=O)c1ccc(-c2ccc(C=C3C(=O)NC(=S)NC3=O)o2)cc1
38: NS(=O)(=O)c1ccc(-c2ccc(C=C3C(=O)NC(=O)NC3=O)o2)cc1
39: O=C(Cc1cccnc1)N1CCCCN2[C@H](C1)[C@H](c1ccc(C#CC3(O)CCCC3)cc1)[C@@H]2CO
40: O=C(Cc1cccnc1)N1CCCCN2[C@H](C1)[C@H](c1ccc(/C=C/c3ccccc3)cc1)[C@@H]2CO
41: COC1CCC(OC2CC(C3(C)CCC4(CC(O)C(C)C(C(C)/C=C(\C)C(=O)C(C)CC(C)C(=O)O)O4)O3)OC3(OC(C4OC(O)(CO)C(C)CC4C)CC3C)C2C)OC1C (stereo unspecified)
42: N#Cc1cccc(-c2ccc([C@H]3[C@H](CO)N4CCCCN(C(=O)Cc5ccncc5)C[C@@H]34)cc2)c1
43: COc1ccc(-c2cc(=Nc3cccc(C(=O)O)c3)c3cc(C)ccc3o2)cc1

screen / no. | 31 | 32 | 33 | 34 | 35 | 36 | 37 | 38 | 39 | 40 | 41 | 42 | 43
MC4R barr agon | -2 | 3 | · | · | -1 | -1 | · | 2 | · | · | 19* | · | -2
HDAC3 inhib | 10 | 8 | 6 | · | -1 | 12 | 5 | 4 | · | · | · | · | -68
ALR inh | 98* | 81* | 6 | · | · | 88* | -21 | 98* | · | · | · | · | 96*
Yeast UUG start | · | -5 | · | -10 | -42 | -24 | · | -5 | -8 | -8 | · | -10 | ·
NALP1 inh | -1 | -13 | 13 | · | · | 16 | -3 | 21 | · | · | · | · | 8
MC4R antag cAMP | 0 | 10 | · | · | 28 | 8 | · | -1 | · | · | 8 | · | -7
